{"source": "paper PMC10970924", "about": "“Anticancer Potential of Pyridoxine-Based Doxorubicin Derivatives: An In Vitro Study” (Life, 2024)", "key": {"[1]": {"system": "MCF-7", "experiment": "MTS cytotoxicity assay", "details": "from the mean IC50 value for HSF cells", "description": "(§1) The study utilized human cell lines including PC-3 (human prostate adenocarcinoma), HSF (primary human skin fibroblasts), MDA-MB-231 (estrogen-negative breast adenocarcinoma), MCF-7 (estrogen-positive breast adenocarcinoma), MSC (multipotent stem cells derived from adipose tissue), SF-539 (brain gliosarcoma), SNB-19 (glioblastoma), A-498 (kidney carcinoma), M-14 (human melanoma), NCI-H322-M (primary bronchioalveolar carcinoma), HCT-15 (colon adenocarcinoma), and HCT-116 (colorectal intestinal carcinoma). We also used immortalized C2C12 mouse myoblasts (ATCC—CRL-1772). Cancer cell lines were obtained from the ATCC collection and generously provided by the Fox Chase Cancer Center (Philadelphia, USA). Conditionally normal cells, including skin fibroblasts and multipotent stem cells, were isolated by our group from postoperative materials (skin and subcutaneous fat) obtained from a conditionally healthy donor. Reagents and consumables for cell culture work were purchased from PanEco (Russia).\n(§2) The cytotoxicity of the compounds under study was assessed using MTS assay on cell cultures. Cells were seeded into 96-well plates at a concentration of 10,000–20,000 cells/mL. After 24 h, gradient concentrations of the compounds were added to the culture medium and the plates were incubated for 72 h. Subsequently, the culture medium was replaced with MTS reagents (Sigma-Aldrich, Burlington, MA, USA) (MTS:PMS (0.18:0.0092 mg/mL)) and dissolved in phenol-free RPMI 1640 medium. After 2 h of incubation, the resulting water-soluble formazan was measured using the TECAN Infinite M200 Pro microplate reader at wavelengths of 555/750 nm. As a control, equivalent volumes of the solvents in which each compound was dissolved (dH2O/DMSO) were used. To calculate the percentage of viable cells relative to the control, which was considered 100%, dose-response curves were plotted against the logarithm of the compound concentration. […]"}, "[2]": {"system": "PC-3", "experiment": "MTS cytotoxicity assay", "details": "from the mean IC50 value for HSF cells", "description": "as §1, §2"}, "[3]": {"system": "HCT-116", "experiment": "MTS cytotoxicity assay", "details": "from the mean IC50 value for HSF cells", "description": "as §1, §2"}, "[4]": {"system": "chicken erythrocyte genomic DNA", "experiment": "Spectrophotometry of complexation with genomic DNA"}, "[5]": {"system": "PC-3 cells", "details": "PC-3, 0.5 µM (IC25), 3 days"}}, "data": [{"smiles": "COc1cccc2c1C(=O)c1c(O)c3c(c(O)c1C2=O)C[C@@](O)(C(=O)CO)C[C@@H]3O[C@H]1C[C@H](N)[C@H](O)[C@H](C)O1", "note": "[DOX, Doxorubicin]", "values": [{"measurement": "Selectivity index IC50 HSF/IC50 MCF-7", "setting": "[1]", "value": "16.45 ± 8.5"}, {"measurement": "Selectivity index IC50 HSF/IC50 PC-3", "setting": "[2]", "value": "1.72 ± 1.56"}, {"measurement": "Selectivity index IC50 HSF/IC50 HCT-116", "setting": "[3]", "value": "1.55 ± 1.45"}, {"measurement": "Shift of the Absorption Maximum Relative to Control", "setting": "[4]; DNA concentration 15 µg/mL", "value": 14, "unit": "nm"}, {"measurement": "Shift of the Absorption Maximum Relative to Control", "setting": "[4]; DNA concentration 20 µg/mL", "value": 14, "unit": "nm"}, {"measurement": "Shift of the Absorption Maximum Relative to Control", "setting": "[4]; DNA concentration 30 µg/mL", "value": 20, "unit": "nm"}, {"measurement": "Shift of the Absorption Maximum Relative to Control", "setting": "[4]; DNA concentration 60 µg/mL", "value": 25, "unit": "nm"}, {"measurement": "Shift of the peak to a longer wavelength on interaction with genomic DNA", "setting": "[4]; over the DNA concentrations tested", "value": "14–25 nm"}, {"measurement": "Tail Moment", "setting": "[5]", "value": 13.45}]}]}
